# The list shows a part of the results. Active and inactive are the calls of the source.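 Rule for the calls: active = activation factor of at least 2 at 5 µM in the primary screen; inactive = the rest.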
# The chains behind the UniProt entries cited, without tags or fusion partners.
# UniProt P33261, whole entry: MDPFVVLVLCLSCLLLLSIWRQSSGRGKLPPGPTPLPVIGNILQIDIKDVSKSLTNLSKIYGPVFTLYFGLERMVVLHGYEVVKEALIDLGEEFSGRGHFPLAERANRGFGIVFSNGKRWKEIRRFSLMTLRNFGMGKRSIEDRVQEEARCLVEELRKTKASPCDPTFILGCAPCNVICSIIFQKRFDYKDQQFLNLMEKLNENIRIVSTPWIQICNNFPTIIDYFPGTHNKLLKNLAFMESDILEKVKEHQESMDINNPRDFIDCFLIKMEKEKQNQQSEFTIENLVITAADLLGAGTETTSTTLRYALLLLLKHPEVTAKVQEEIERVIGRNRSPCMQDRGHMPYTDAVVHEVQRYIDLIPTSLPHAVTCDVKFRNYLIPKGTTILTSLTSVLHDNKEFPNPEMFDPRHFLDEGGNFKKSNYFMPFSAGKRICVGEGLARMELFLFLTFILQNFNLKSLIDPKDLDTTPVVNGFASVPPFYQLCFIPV
# Biological target: Cytochrome P450 2C19 (Homo sapiens) (UniProt P33261)
# Assay: enhancers of cytochrome P450 2C19 turnover – biochemical, luminescence, primary screen (AID 1025);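 note: 0 = wells with 2.5 mM tranylcypromine and 1 = vehicle-only wells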
# Settings: recombinant CYP2C19, luciferin-H EGE luminescence; at 5 µM; hits give high values; 0 = fully inhibited enzyme, 1 = untreated enzyme
row,Compound,activation factor
1,CCC(CO)(C(=O)OC1CN2CCC1CC2)c1ccccc1 (stereo not given),inactive: 1
2,CCOc1ncccc1C(=O)NCC1(N2CCOCC2)CCCCC1,inactive: 0.5
3,Fc1ccccc1NC1CCN(Cc2ccccc2)CC1,inactive: 0.1
4,c1ccc(CN2CCC(Nc3ccccc3)CC2)cc1,inactive: 0.1
5,N/C(=N\O)c1c(N)no[n+]1[O-],inactive: 1
6,O=C(NCC1(N2CCOCC2)CCCCC1)c1cc(=O)[nH]c2ccccc12,inactive: 1.1
7,N#CC1(Nc2ccccc2)CCN(CCc2ccccc2)CC1,inactive: 0.6
8,COc1ccc(NC2CCN(CCc3ccccc3)CC2)c(OC)c1,inactive: 1
9,O=C(NCC1(N2CCOCC2)CCCCC1)c1cc2ccccc2o1,inactive: 0.9
10,O=C(OC1CN2CCC1CC2)C1c2ccccc2Oc2ccccc21 (stereo not given),inactive: 0.9

# Source: PubChem BioAssay AID1025 (Sanford-Burnham Center for Chemical Genomics, 2008)
